Assay results taken from patent US20050085419A1, “Anti-growth factor receptor avidin fusion proteins as universal vectors for drug delivery” (The Regents of the University of California, priority 1999, published 2005).
Where two headings read alike, the source gives them in different places.

Conditions: rat
[1] = intravenous injection, [125I]-biotin-PNA

**Q.** Which results are given for “5′-biotin-CTCCGCTTCTTCCTGCCA-Tyr-Lys-CONH2-3′ [[^125I]-Biotin-PNA]”?
**A.** brain uptake (60 min after intravenous injection, biotin-PNA, listed as [^125I] biotin-PNA): 0.0083±0.0009 % ID/g; brain uptake (60 min after intravenous injection, biotin-PNA, listed as biotin-PNA): 0.0083 % ID/g; BBB PS product [1]: 0.12 ± 0.01 µL/min/g; PS Product [1]: 0.12 ± 0.01 μl/ml/g brain; brain uptake [1]: 0.0083 ± 0.0009 % ID/g brain; brain uptake increase when bound to anti-TfR IgG3-CH3-Av versus free biotin-PNA (intravenous, biotin-PNA): at least 15 fold
